Measurements reported in publication PMC6628712 (Journal of enzyme inhibition and medicinal chemistry, 2016).

Molecular target: T1, CYP26A1 (Homo sapiens, UniProt O43174)
T1 sequence (O43174 1-497): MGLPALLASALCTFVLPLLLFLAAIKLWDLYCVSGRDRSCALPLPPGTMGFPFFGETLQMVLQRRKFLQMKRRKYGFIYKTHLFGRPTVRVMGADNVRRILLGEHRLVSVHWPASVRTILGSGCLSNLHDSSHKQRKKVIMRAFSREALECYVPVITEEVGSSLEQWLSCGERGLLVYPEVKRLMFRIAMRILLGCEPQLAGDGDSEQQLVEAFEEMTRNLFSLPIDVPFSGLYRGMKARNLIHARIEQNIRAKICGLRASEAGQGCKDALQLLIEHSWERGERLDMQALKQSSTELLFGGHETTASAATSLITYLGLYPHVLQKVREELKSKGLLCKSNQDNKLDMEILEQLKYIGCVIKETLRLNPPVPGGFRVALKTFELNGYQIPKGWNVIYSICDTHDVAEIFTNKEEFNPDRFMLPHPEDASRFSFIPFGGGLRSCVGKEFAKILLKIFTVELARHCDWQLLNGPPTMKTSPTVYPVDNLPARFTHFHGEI
Test: Inhibition of CYP26A1-catalyzed tazarotenic acid sulfoxide formation
Format: biochemical
Details: ratio of IC50 values, tazarotenic acid probe

`CCc1oc2ccccc2c1C(=O)c1cc(Br)c(O)c(Br)c1` [Benzbromarone] was tested, and the “Selectivity for CYP26A1 (versus CYP26B1)” value was 12.0 fold.
